Experimental data published in BindingDB's records for US10807988.

Amino acid sequences for entries named in this document (tags omitted).
UniProt P41146, whole entry: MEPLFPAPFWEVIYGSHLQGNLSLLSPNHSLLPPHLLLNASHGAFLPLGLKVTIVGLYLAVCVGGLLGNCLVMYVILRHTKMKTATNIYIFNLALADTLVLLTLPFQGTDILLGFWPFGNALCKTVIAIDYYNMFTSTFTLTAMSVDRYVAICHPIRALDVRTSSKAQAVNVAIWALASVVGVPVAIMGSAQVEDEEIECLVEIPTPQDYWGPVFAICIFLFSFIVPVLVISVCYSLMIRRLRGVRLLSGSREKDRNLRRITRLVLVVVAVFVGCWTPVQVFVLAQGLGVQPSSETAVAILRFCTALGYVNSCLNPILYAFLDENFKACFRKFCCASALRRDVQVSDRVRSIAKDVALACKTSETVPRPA

Molecular target: Nociceptin receptor (Homo sapiens, UniProt P41146)
Test: ASSAY_NAME: Human Nociceptin/Orphanin FQ Peptide (hNOP) Receptor Binding Assay DESCRIPTION: The hNOP receptor binding assay was performed as homogeneous SPA-assay (scintillation proximity assay) using the assay buffer 50 mM TRIS-HCl. 10 mM MgCl2. 1 mM EDTA (pH 7.4). The final assay volume (250 μl/well) included 0.5 nM of [leucyl-3H]nociceptin as ligand (PerkinElmer Life Sciences. Inc. Boston.

Compound `CN(C)[C@]1(c2ccccc2)CC[C@]2(CC1)CN(c1cnc(-c3cccc4c3CC(=O)N4)nc1)C(=O)N2` has a Ki of 39 nM.
